Results from patent publication US6555692B1, “Preparation and use of bifunctional molecules having DNA sequence binding specificity” (California Institute of Technology, priority 1996, dated 2003).

What was measured:
[1] = test system: 5′-TGGGGA-3′; assay: DNase I footprint titration, pSES9hp fragment; assay type: binding
[2] = test system: 5′-AGGGAGTCCCT-3′; assay: Quantitative DNase I footprint titration; conditions: single base pair β/β mismatch sequence
[3] = test system: 5′-AGGGAATCCCT-3′; assay: Quantitative DNase I footprint titration; conditions: binding site size enlarged from 6 to 11 base pairs
[4] = test system: 5′-AGGGAA-3′; assay: DNase I footprint titration; conditions: hairpin conformation
[5] = test system: 5′-TGGCCA-3′; assay: DNase I footprint titration, pSES9hp fragment; assay type: binding
[6] = test system: 5′-TGTTA-3′; assay: Quantitative DNase I footprint titration, equilibrium association constant

Compound: CN(C)CCCNC(=O)CCNC(=O)c1cc(NC(=O)c2cc(NC(=O)c3cc(NC(=O)c4cc(NC(=O)CCCNC(=O)c5nc(NC(=O)c6nc(NC(=O)c7nc(NC(=O)c8nccn8C)cn7C)cn6C)cn5C)cn4C)cn3C)cn2C)cn1C [ImImImIm-γ-PyPyPyPy-β-Dp]
- Ka [1]: 3e+07 M⁻¹

Compound: CN(C)CCCNC(=O)CCNC(=O)c1cc(NC(=O)c2cc(NC(=O)c3cc(NC(=O)c4cc(NC(=O)CCNC(=O)c5cc(NC(=O)c6nc(NC(=O)c7nc(NC(=O)c8nccn8C)cn7C)cn6C)cn5C)cn4C)cn3C)cn2C)cn1C [ImImImPy-β-PyPyPyPy-β-Dp]
- Ka [2]: 6.9e+08 M⁻¹
- enhancement in binding energy, 4-β-4 versus 4-γ-4 polyamide [3]: 2.1 kcal/mol

Compound: CN(C)CCCNC(=O)CCNC(=O)c1cc(NC(=O)c2cc(NC(=O)c3cc(NC(=O)c4cc(NC(=O)CCCNC(=O)c5cc(NC(=O)c6nc(NC(=O)c7nc(NC(=O)c8nccn8C)cn7C)cn6C)cn5C)cn4C)cn3C)cn2C)cn1C [ImImImPy-γ-PyPyPyPy-β-Dp]
- association constant Ka [4]: 4×10^8

Compound: CN(C)CCCNC(=O)CCNC(=O)c1cc(NC(=O)c2cc(NC(=O)c3nc(NC(=O)c4nc(NC(=O)CCCNC(=O)c5cc(NC(=O)c6cc(NC(=O)c7nc(NC(=O)c8nccn8C)cn7C)cn6C)cn5C)cn4C)cn3C)cn2C)cn1C [ImImPyPy-γ-ImImPyPy-β-Dp]
- reduced affinity at double base pair mismatch sequences ([5]; 5′-TGCGCA-3′ and 5′-TGGGGA-3′ vs 5′-TGGCCA-3′): at least 200 fold
- equilibrium association constant Ka ([5]; match site, pH 7.0 and 22° C.): 1e+10 M⁻¹

Compound: CN(C)CCCNC(=O)CCNC(=O)c1cc(NC(=O)c2cc(NC(=O)c3cc(NC(=O)CCCNC(=O)c4cc(NC(=O)c5cc(NC(=O)c6nccn6C)cn5C)cn4C)cn3C)cn2C)cn1C [ImPyPy-γ-PyPyPy-β-Dp]
- apparent first order association constant Ka ([6]; 5′-TGTTA-3′ match site): 3e+08 M⁻¹
- specificity, match site relative to single base pair mismatch site ([6]; 5′-TGTTA-3′ match vs 5′-TGACA-3′ mismatch): 60 fold
